Compound activity deposited in PubChem BioAssay by National Center for Advancing Translational Sciences (NCATS).
miR-21 reporter – raises the signal of a miR-21 reporter | HeLa miR-21 FLuc reporter, luciferase, 48 h | Potency, µM (highest dose often 38.3 µM), inactives show at the highest dose reporter change, positive = more light | 340,000 tested, under 10 active | AID 2288; active = well fitted rising curve with a large enough effect; inconclusive = small, poorly fitted or top-dose-only effect; inactive = no such curve, though single readings can be large or run the other way;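 note: % of control where 0% means no effect; miR-21 action dims this reporter so a rising signal means less miR-21 action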
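Compounds were titrated across several concentrations (up to approximately 40 uM) and incubated 48 hours with HeLa miR-21-FLuc reporter cells (miR-21 target sequence downstream of FLuc, endogenous miR-21). Readout was firefly luciferase luminescence after lytic detection reagent.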
IL-2 act – activators of IL-2; IL-2 activation reporter assay, cell-based qHTS; stimulated with anti-CD3/CD4/CD28 beads; in transgenic mouse T cells; activation, % (series mostly up to about 46 µM); 360,000 tested, 0.065% active; AID 652025; in the data active means activation above about 50%; inconclusive means mostly about 30% to 49%; further: 0% is about no effect
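Readout: EGFP and DsRed signals by fluorescent plate cytometry. Unstimulated transgenic mouse T cells received compound 60 min before antibody-bead stimulation, then incubated 18 h at 37 degrees C.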
PINK1 expr mod – changes PINK1 expression; PINK1 immunofluorescence, high-content cytometry, 24 h; Potency, µM (series often up to 76.6 µM), without a hit: at the top dose activation (PINK1 increase), actives largely listed as activators; 410,000 tested, 0.2% active; AID 624263; active means well fitted activation curve with a large enough effect; inconclusive means small, poorly fitted or top-dose-only effect; cell line not stated here; further: potency means the concentration at half of the fitted maximal effect; % of control where 0% means no effect; nearly all actives have a fitted effect of over 65% in size
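Stable cell line treated 24 h with compounds at 5 concentrations (CCCP controls), then fixed and immunostained for PINK1 plus nuclear and cell stains; PINK1 immunofluorescence quantified by laser-scanning microplate cytometry.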
Epigenetic reg – epigenetic control regulation, reporter derepression. murine LDR cells, GFP reporter derepression, 30 h. Potency, µM (series often up to 53.9 µM), without a hit: at the highest dose GFP activation, hits mostly activators. 280,000 tested, 0.2% active; further: potency means the concentration at half of the fitted maximal effect; % of control where 0% means no effect; nearly all actives have a fitted effect of over 60% in size
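Murine LDR cells carrying a silenced, genomically integrated CMV-driven GFP reporter were exposed to compound for 30 hours at 37 C. After PBS washes, GFP-positive cells (20–120 um objects) were counted by laser-scanning microplate cytometry.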
p53 reactivation – mutant p53 re-activation in reporter cells; H1299 p53-A138V BP100-luciferase reporter, luminescence, 24 h; Potency, µM (series often up to 92.2 µM), for the others: at the highest dose activity change, positive = activation, actives largely listed as activators; 320,000 tested, 0.063% active; AID 504706; further: potency means the concentration at half of the fitted maximal effect; % of control where 0% means no effect; nearly all actives have a fitted effect of over 45% in size
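p53-null H1299 cells stably carrying temperature-sensitive p53-A138V and a BP100-luciferase reporter were pinned with compounds (4-point, 1:5 series) and held 24 hrs at 37 deg C. Luminescence was read 10 min after detection reagent.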
uPA generation – blocks generation of uPA at the cell surface. cell surface uPA generation assay, qHTS. Potency, µM (titrated, usually from 38.3 µM), for inactives: at the highest dose activity change, negative = inhibition, most hits filed as inhibitors. 330,000 tested, 0.31% active; active means well fitted inhibition curve with a large enough effect; inconclusive means small, poorly fitted or top-dose-only effect; inactive means no such curve, though single readings can be large or run the other way; tested in mouse RAW 264.7 cells; further: potency means the concentration at half of the fitted maximal effect; on the % scale 0 is the no-effect control and ±100 the full control effect; nearly all actives have a fitted effect of over 55% in size
An asterisk follows results filed as active; ? = inconclusive; . = no result given; [ ] = another dose, or the depositor's remark. An excerpt weighted towards active compounds, which were near 0.62% of everything screened. Unless noted, the call rests on the fitted dose curve; in most records, active means well fitted curve in the direction sought with a large enough effect; inconclusive means small, poorly fitted or top-dose-only effect, or another doubt; inactive means no such curve, though single readings can be large; an effect the other way counts as inactive or inconclusive.

1	CC(C)NC(=O)c1cn(C2CCC(NC(=O)C(C)(C)C)CC2)nn1 (stereo not drawn)
2	O=C(NNc1ccccc1[N+](=O)[O-])Nc1ccc(Cl)c(Cl)c1
3	CCN(CC)S(=O)(=O)c1cc([N+](=O)[O-])ccc1NNC(=O)Nc1ccc(Cl)c(Cl)c1
4	Cc1nn(C)cc1/C=N/NC(=S)Nc1ccccc1
5	Cc1cnc(C)c(-c2ccc3c(c2)CC(CNC(=O)Cc2c(C)[nH]c4ccccc24)O3)n1 (stereo not drawn)
6	Cc1cc(Nc2ccccc2F)n2nc(-c3ccccc3)nc2n1
7	Cc1cc(Nc2cc(Cl)ccc2C)n2nc(-c3ccccc3)nc2n1
8	COc1cc2c(NC3CCN(C)CC3)nc(N3CCCN(C)CC3)nc2cc1OCCCCCCN(C)C

| Assay by compound | 1 | 2 | 3 | 4 | 5 | 6 | 7 | 8 |
| --- | --- | --- | --- | --- | --- | --- | --- | --- |
| miR-21 reporter | . | ? | ? | -38.1% | . | 1.9% | -3.9% | . |
| IL-2 act | . | -4.1 | -1.3 | -2.7 | . | . | . | . |
| PINK1 expr mod | -0.3% | ? | 14.1µM* | -0.2%[38.3 µM] | -0.9% | 3.4% | 5.1% | -1.2% |
| Epigenetic reg | . | 1.1% | -0.6% | 3.98µM* | . | -3.0% | 25.1µM* | . |
| p53 reactivation | . | ? | 3.6% | ? | . | . | . | . |
| uPA generation | . | 6.7% | -10.1% | 5.0% | . | . | . | . |

9	O=S(=O)(/C=C/c1ccccc1)N1CCC(n2c(C3CCCO3)nc3cccnc32)CC1 (stereo not drawn)
10	C#Cc1cccc(C(=O)NCc2nc(-c3ccccc3NC(=O)C3CCCO3)oc2C)c1 (stereo not drawn)
11	O=C(N/N=C/c1cc(Cl)ccc1O)c1ccccc1Br
12	Oc1ccc(Cl)cc1C1=NNC(c2ccc(Cl)cc2)C1 (stereo not drawn)
13	Oc1c(Cl)cc(Cl)cc1C1=NNC(c2ccc(Cl)cc2)C1 (stereo not drawn)
14	CCC1CN(CCC(=O)NC2CCOC(C)(C)C2)Cc2cc(OC)ccc2O1 (stereo not drawn)
15	N/C(=N\OC(=O)c1ccco1)c1ccccc1
16	Cc1ccc(/C(N)=N/OC(=O)c2ccco2)cc1

| Assay by compound | 9 | 10 | 11 | 12 | 13 | 14 | 15 | 16 |
| --- | --- | --- | --- | --- | --- | --- | --- | --- |
| miR-21 reporter | . | . | 17.4% | -24.5% | -4.0% | . | -62.1% | -45.7% |
| IL-2 act | . | . | 0.4 | -2.7 | -0.6 | . | 0.5 | -1.1 |
| PINK1 expr mod | 0.5% | 0.6% | 0.1% | 18.4% | 3.7% | -0.6% | -0.2%[38.3 µM] | -2.3% |
| Epigenetic reg | . | . | 3.8% | ? | -0.9% | . | 1.2% | -2.0% |
| p53 reactivation | . | . | ? | 28.2µM* | -6.3% | . | ? | 17.8µM* |
| uPA generation | . | . | 4.47µM* | -3.9% | 1.3% | . | 3.3% | -2.5% |

17	CCC1=C/C(=C/c2sc3ccccc3[n+]2CC)CC(C)(C)C1
18	CC[n+]1c(/C=C2\C=C(C)CC(C)(C)C2)sc2ccccc21
19	COc1ccc(-n2c(-c3ccccc3)nnc2-c2ccc(Cl)cc2)cc1
20	COc1ccc(-n2c(-c3ccc(Cl)cc3)c[n+]3c2CCc2ccccc2-3)cc1
21	N#Cc1c(Cl)nsc1NC(=O)c1ccccc1
22	Cc1cnc(NC(=O)CCc2ccccc2)s1
23	C=CC(=O)N1CCC[C@@H](n2nc(-c3ccc(Oc4ccccc4)cc3)c3c(N)ncnc32)C1
24	COc1ccc(-c2csc(/C(C#N)=C/Nc3ccc4c(c3)OCCO4)n2)cc1

| Assay by compound | 17 | 18 | 19 | 20 | 21 | 22 | 23 | 24 |
| --- | --- | --- | --- | --- | --- | --- | --- | --- |
| miR-21 reporter | 10.0% | 6.2% | -10.7% | 28.6% | 19.5% | -13.0% | . | -11.0% |
| IL-2 act | -0.6 | -2.6 | 0.4 | -0.7 | 0.1 | 1.4 | . | 1.0 |
| PINK1 expr mod | 12.7% | 12.6µM* | 1.2% | 31.6µM* | 12.6µM* | 11.3% | -1.2%[153 µM] | 5.0% |
| Epigenetic reg | 9.5% | 9.5% | 0.0% | 1.1% | -1.0% | . | . | 10µM* |
| p53 reactivation | 8.9% | -15.2% | 12.3% | -0.3% | 17.3% | . | . | -4.8% |
| uPA generation | -10.6% | -23.8% | 14.7% | -14.6% | ? | 10µM* | . | 20.2% |

25	N#C/C(=C\Nc1ccc2c(c1)OCCO2)c1nc(-c2ccccc2)cs1
26	CC(C)C(NC(=O)c1ccoc1)c1nnc2n1CCN(Cc1ccc3c(c1)Cc1ccccc1-3)CC2 (stereo not drawn)
27	COc1ccc(-c2c[n+](CC(=O)OC3CC(C)CCC3C(C)C)c3n2CCC3)cc1 (stereo not drawn)
28	Cc1cc(C)nc(-c2cccc3c2OC(CNC(=O)c2ccc(Cn4nc(C)cc4C)cc2)C3)n1 (stereo not drawn)
29	Cc1ccc2c(C)nc(Nc3nc(CSc4nc5ccccc5[nH]4)cc(=O)[nH]3)nc2c1
30	O=C(C[n+]1ccccc1)c1ccc(-c2ccccc2)cc1
31	CN(C)c1cc[n+](CC(=O)c2ccc(-c3ccccc3)cc2)cc1
32	COc1cc(OC)c(/C=C/c2cc(/C=C/c3c(OC)cc(OC)cc3OC)[n+](C)c3ccccc23)c(OC)c1

| Assay by compound | 25 | 26 | 27 | 28 | 29 | 30 | 31 | 32 |
| --- | --- | --- | --- | --- | --- | --- | --- | --- |
| miR-21 reporter | -7.8% | . | ? | . | 28.2% | -5.3% | ? | . |
| IL-2 act | 2.2 | . | -0.9 | . | -2.0 | 4.0 | -3.3 | . |
| PINK1 expr mod | 6.8% | -0.4% | 39.8µM* | 0.2% | -0.1%[38.3 µM] | 0.3% | 25.1µM* | 39.8µM* |
| Epigenetic reg | 14.4% | . | 1.1% | . | 35.5µM* | -0.2% | -2.8% | . |
| p53 reactivation | 3.2% | . | -1.3% | . | 4.6% | 14.6% | -0.7% | . |
| uPA generation | 10.2% | . | 6.31µM* | . | ? | -5.4% | 7.08µM* | . |

33	COc1ccc(/C=C(\C#N)c2nc(-c3cc4c(ccc5ccccc54)oc3=O)cs2)cc1O
34	COc1ccc(/C=C(/C#N)c2nc(-c3ccc(-c4ccccc4)cc3)cs2)cc1OC
35	COCC1CCCN(Cc2ccc3c(c2)CN(C(=O)c2sc(C)nc2C)CCO3)C1 (stereo not drawn)
36	Cc1ccc(C(=O)/C=C/c2ccc(F)cc2)o1
37	O=C(/C=C/c1ccc(F)cc1)c1ccccc1Br
38	C=CCN1C(=O)C(C)(C)N(C(C)=O)c2ccccc21
39	CC(=O)N1c2ccccc2N(Cc2ccc(C)cc2C)C(=O)C1(C)C
40	CCc1nc2cc(C(=O)N(C)CC3CCCN(C)C3)cc(NC(=O)c3ccccc3OC)c2n1C (stereo not drawn)

| Assay by compound | 33 | 34 | 35 | 36 | 37 | 38 | 39 | 40 |
| --- | --- | --- | --- | --- | --- | --- | --- | --- |
| miR-21 reporter | -10.6% | -1.4% | . | 3.5% | 12.4% | -6.2% | 22.8% | . |
| IL-2 act | . | . | . | -3.2 | 0.2 | 0.4 | -0.7 | . |
| PINK1 expr mod | 0.1% | -0.4% | -0.5% | 4.9% | -2.3% | 1.1% | 7.4% | 0.5% |
| Epigenetic reg | 12.6µM* | 10µM* | . | 3.4% | 10.9% | -3.5% | 1.1% | . |
| p53 reactivation | . | . | . | 44.7µM* | ? | -13.6% | -6.9% | . |
| uPA generation | . | . | . | -20.1% | -7.0% | -10.6% | 7.08µM* | . |

In another format: entries from further up.
Second line of a record: miR-21 reporter	IL-2 act	PINK1 expr mod	Epigenetic reg	p53 reactivation	uPA generation
[27] COc1ccc(-c2c[n+](CC(=O)OC3CC(C)CCC3C(C)C)c3n2CCC3)cc1 (stereo not drawn)
 : ?	-0.9	39.8µM*	1.1%	-1.3%	6.31µM*
[28] Cc1cc(C)nc(-c2cccc3c2OC(CNC(=O)c2ccc(Cn4nc(C)cc4C)cc2)C3)n1 (stereo not drawn)
 : .	.	0.2%	.	.	.
[29] Cc1ccc2c(C)nc(Nc3nc(CSc4nc5ccccc5[nH]4)cc(=O)[nH]3)nc2c1
 : 28.2%	-2.0	-0.1%[38.3 µM]	35.5µM*	4.6%	?

(further entries)
41	COc1ccc2nc(NCc3ccccc3)[nH]c2c1
42	O=C(CCl)Nc1cccc(S(=O)(=O)NC2=NCCCCC2)c1
43	CCOc1cc(/C=N/NC(=O)c2cccnc2)ccc1O
44	CCCCNC(=S)N/N=C/c1cccc(OCC)c1O
45	CCOc1cccc(/C=N/NC(=O)c2cccnc2)c1O
46	CCOc1cccc(/C=N/NC(=S)Nc2ccccc2[N+](=O)[O-])c1O
47	CCc1ccc(NC(=O)COC(=O)c2ccccc2OCC(=O)N(C)C)cc1
48	CC(C)C(NS(C)(=O)=O)c1nnc2n1CCN(Cc1cccc3ncccc13)CC2 (stereo not drawn)

| Assay by compound | 41 | 42 | 43 | 44 | 45 | 46 | 47 | 48 |
| --- | --- | --- | --- | --- | --- | --- | --- | --- |
| miR-21 reporter | -0.1% | . | 7.2% | -47.5% | 16.0% | 6.7% | . | . |
| IL-2 act | 0.4 | -0.4 | 0.5 | -2.4 | -0.5 | -0.7 | . | . |
| PINK1 expr mod | 15.8µM* | -0.4% | 0.2% | 5.1% | 0.4% | 12.5% | -1.1% | -0.3% |
| Epigenetic reg | -1.0% | . | 0.3% | -4.1% | . | 1.1% | . | . |
| p53 reactivation | . | -21.8% | 0.5% | 1.4% | . | 7.2% | . | . |
| uPA generation | . | 2.51µM* | 1.1% | -1.6% | 10µM* | 6.31µM* | . | . |
